Assay results reported in paper PMC11024108.

How the values were obtained:
Test in all cases: cross-link between two proteins; cross-linking mass spectrometry
[1] = molecular target: T1, 26S proteasome non-ATPase regulatory subunit 7 (UniProt P26516)
T1 sequence: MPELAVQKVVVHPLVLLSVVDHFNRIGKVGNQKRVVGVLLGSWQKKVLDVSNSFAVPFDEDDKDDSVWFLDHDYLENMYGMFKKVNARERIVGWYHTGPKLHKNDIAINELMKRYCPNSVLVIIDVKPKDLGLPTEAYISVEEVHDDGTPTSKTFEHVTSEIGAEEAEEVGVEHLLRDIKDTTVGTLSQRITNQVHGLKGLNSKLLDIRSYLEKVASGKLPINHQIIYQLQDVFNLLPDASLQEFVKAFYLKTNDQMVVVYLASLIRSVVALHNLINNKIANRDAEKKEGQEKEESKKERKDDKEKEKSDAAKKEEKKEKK

[2] = molecular target: NADH dehydrogenase [ubiquinone] 1 alpha subcomplex subunit 7 (UniProt Q9Z1P6)
[3] = test system: Serine/threonine-protein kinase mTOR

## Ubiquitin C-terminal hydrolase PSMD14
[1]
  listed as a hit: yes

## NADH dehydrogenase [ubiquinone] iron-sulfur protein 2, mitochondrial, Q91WD5
[2]
  listed as a hit: yes

## Regulatory-associated protein of mTOR, Q8K4Q0
[3]
  listed as a hit: yes
